Data on two compounds can be found in PubChem BioAssay AID1645888 (National Center for Advancing Translational Sciences (NCATS), 2021).

The list shows a part of the results, in another mix than the full data. Inconclusive results are not listed. Calls of active or inactive are those of the source. Calls follow the shape of the dose curve; as a rule, active = well fitted inhibition curve with a large enough effect; inconclusive = small, poorly fitted or top-dose-only effect; inactive = no such curve, though single readings can be large or run the other way.

This assay deals with Rap guanine nucleotide exchange factor 3 (Homo sapiens) (UniProt O95398). The assay can be described thus: Counterscreen qHTS for antagonist of cAMP-regulated guanine nucleotide exchange factor 3 (EPAC1). Also: % of control where 0% means no effect. As to conditions: Rap1B-BODIPY-GDP nucleotide exchange, fluorescence; at 154 µM (top of the series). The source says:
Assay Provider (PI): Xiaodong Cheng Ph.D. The University of Texas Medical Branch, Houston, TX MLPCN Grant: NS066510 In multi-cellular eukaryotic organisms, the effects of cAMP are transduced by two ubiquitously-expressed intracellular cAMP receptors, the classic protein kinase A/cAMP-dependent protein kinase (PKA/cAPK) and the more recently discovered exchange protein directly activated by cAMP/cAMP-regulated guanine nucleotide exchange factor (EPAC/cAMP-GEF). Both PKA and EPAC are ubiquitously expressed in all tissues, and an increase in intracellular cAMP levels will lead to the activation of both PKA and EPAC. […] This qHTS will be used to screen the Molecular Libraries Small Molecule Repository (MLSMR) as a concentration-titration series using the NCGC unique quantitative screening (qHTS) platform to find activators for EPAC1. […] Activators are identified by monitoring the change in fluorescence signal as the exchanged free BODIPY-GDP has a reduced fluorescence compared to Rap1-bound BODIPY-GDP. […]
EPAC1 Counterscreen PROTOCOL TABLE SEQUENCE No. (e.g., 1, 2, 3, etc.); […] […] Fluorescence. (Read 1), Ex/Em = 480 nm / 540 nm. […] Fluorescence. (Read 2), Ex/Em = 480 nm/ 540 nm. […] Fluorescence. (Read 3), Ex/Em = 480 nm / 540 nm. […] Fluorescence. (Read 4), Ex/Em = 480 nm / 540 nm. […]
For orientation: The purpose of a counterscreen is to sort out artefacts and off-target activity.
As to `CCCCn1nnnc1C(c1cc2ccccc2o1)N1CCC(n2c(=O)[nH]c3ccccc32)CC1` (configuration not stated), the activity change, negative = inhibition was inactive: -9.69%. `CCC(c1nnnn1C(C)(C)C)N1CCC(n2c(=O)[nH]c3ccccc32)CC1` (configuration not stated): the activity change, negative = inhibition is inactive: 1.12%.
